Earlier results in patent US6605304B1, “Silicate-containing powders providing controlled, sustained gas release” (Bernard Technologies, Inc., priority 1998, dated 2003).

System: mice
Conditions: subchronic and acute oral administration

Question: Which “chromosomal aberrations or micronuclei in the bone marrow” value does the source give for sodium chlorite here?
Answer: The value was “failed to induce any chromosomal aberrations or increased numbers of micronuclei”.
